Results taken from patent publication US20250032651A1, “[177LU] LUTETIUM-PSMA I&T COMPOSITION AND DOSIMETRY, KIT, METHOD OF MAKING, AND METHOD OF USING THEREOF” (Curium US LLC, priority 2022, published 2025).

Test: Radiochemical purity of ^177Lu-PSMA I&T by HPLC in different formulation compositions, hours post EOS (Example 3)
Format: physicochemical
Protocol: The shelf life of ^177Lu-PSMA I&T is restricted by high rate of radiolysis during preparation and storage resulting in decomposition of ^177Lu-PSMA I&T and formation of radiochemical impurities. This eventually results in radiochemical purity of ^177Lu-PSMA I&T solution to fall below acceptance limit of 95.0%. • Formation of a particular radiochemical impurity of ^177Lu-PSMA I&T have been observed having retention time of about 5.2 minutes by HPLC with Phenomenex Luna C18 column (3 μm, 150 mm×4.6 mm) using 0.1% trifluoroacetic acid in water (Mobile phase A) and 0.1% trifluoroacetic acid in water:acetonitrile (10:90% v/v) (Mobile phase B) and isocratic method of 23% Mobile phase B at temperature of 40° C. The impurity referred herein having retention time of about 5.2 minutes is exemplified in the chromatograms in FIGS. 6A-11B. • In experiments conducted previously, lowering formulation radioactivity concentration was sufficient to reduce the formation of the impurity eluting at about 5.2 minutes and maintaining radiochemical stability of [^177Lu]Lu-PSMA I&T solutions above 95.0% for 72 hours. • In this example, six experiments were conducted where [^177Lu]Lu-PSMA I&T was prepared in different formulation compositions with varying ascorbic acid concentration, pH and radioactivity concentration. Product formulation details are described in Table 6.
• High radioactivity concentration (high RAC) in sample solutions were 1278 MBq/ml, 1281 MBq/ml and 1311 MBq/ml measured at the end of production. Low radioactivity concentration (low RAC) in sample solutions were 579 MBq/ml, 589 MBq/ml and 626 MBq/ml measured at the end of production. Radiochemical purity of each solution was followed by HPLC up to 71-93 hours post-radiolabeling.

Question: Which results are given for `O=C([O-])CC[C@H](NC(=O)N[C@@H](CCCCNC(=O)CCCCCCC(=O)NCCCC[C@@H](NC(=O)[C@@H](Cc1ccccc1)NC(=O)[C@@H](Cc1ccc(O)c(I)c1)NC(=O)CC[C@H](C(=O)[O-])N1CCN(CC(=O)[O-])CCN(CC(=O)[O-])CCN(CC(=O)[O-])CC1)C(=O)[O-])C(=O)[O-])C(=O)[O-].[177Lu+3].[H+].[H+].[H+].[H+].[H+]` [^177Lu-PSMA I&T, (3S,7S,26R,29R,32R,37R)-29-benzyl-32-(4-hydroxy-3-iodobenzyl)-5,13,20,28,31,34-hexaoxo-37-(4,7,10-tris(carboxymethyl)-1,4,7,10-tetraazacyclododecan-1-yl)-4,6,12,21,27,30,33-heptaazaheptatriacontane-1,3,7,26,37-pentacarboxylic acid; lutetium-177 (III)]?
Answer: radiochemical purity (high radioactivity concentration, pH 4.5, 42.5 mg/ml ascorbic acid, 0 hours post EOS): 99.4%; radiochemical purity (low radioactivity concentration 579 MBq/ml, pH 4.5, 21 mg/ml ascorbic acid, 0 hours post EOS): 99.4%; radiochemical purity (low radioactivity concentration 579 MBq/ml, pH 4.5, 21 mg/ml ascorbic acid, 19 hours post EOS): 98.3%; radiochemical purity (low radioactivity concentration 579 MBq/ml, pH 4.5, 21 mg/ml ascorbic acid, 46 hours post EOS): 97.5%; radiochemical purity (low radioactivity concentration 579 MBq/ml, pH 4.5, 21 mg/ml ascorbic acid, 71 hours post EOS): 96.8%; radiochemical purity (low radioactivity concentration 588.5 MBq/ml, pH 4.5, 31 mg/ml ascorbic acid, 0 hours post EOS): 99.1%; radiochemical purity (low radioactivity concentration 626 MBq/ml, pH 5.0, 31 mg/ml ascorbic acid, 71 hours post EOS): 96.5%
